Test results: PubChem BioAssay (NCI)
The entries are a selection whose mix differs from that of the whole data set.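 Values shown are percent growth following 48 h exposure of cells in 96-well plates to a single concentration of compound; below 10 was considered active.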 Calls of active or inactive are those of the source.

How the values were obtained:
Assay in all cases: NCI-60 one-dose screen, 48 h (100 = growth as untreated, 0 = no growth, -100 = all killed)
Conditions in all cases: 10 µM unless noted
MOLT-4 leukemia = system: MOLT-4 leukemia
RPMI-8226 leukemia = system: RPMI-8226 leukemia
OVCAR-8 ovarian = system: OVCAR-8 ovarian
OVCAR-5 ovarian = system: OVCAR-5 ovarian
OVCAR-4 ovarian = system: OVCAR-4 ovarian
SK-OV-3 ovarian = system: SK-OV-3 ovarian
IGROV1 ovarian = system: IGROV1 ovarian
OVCAR-3 ovarian = system: OVCAR-3 ovarian
HS 578T breast = system: HS 578T breast
SR leukemia = system: SR leukemia

| Compound | growth (MOLT-4 leukemia) | growth (RPMI-8226 leukemia) | growth (OVCAR-8 ovarian) | growth (OVCAR-5 ovarian) | growth (OVCAR-4 ovarian) | growth (SK-OV-3 ovarian) | growth (IGROV1 ovarian) | growth (OVCAR-3 ovarian) | growth (HS 578T breast) | growth (SR leukemia) |
| --- | --- | --- | --- | --- | --- | --- | --- | --- | --- | --- |
| NCCSP(=O)(O)O | inactive: 124% | inactive: 106% | inactive: 104% | inactive: 103% | inactive: 111% | inactive: 109% | inactive: 113% | inactive: 109% | inactive: 105% |  |
| C=CCOP(O)OCC=C | inactive: 113% | inactive: 100% | inactive: 105% | inactive: 107% | inactive: 102% | inactive: 101% | inactive: 112% | inactive: 117% | inactive: 101% |  |
| O=[N+]([O-])c1ccc(Nc2ccc(Oc3ccc([N+](=O)[O-])cc3[N+](=O)[O-])cc2)c([N+](=O)[O-])c1 |  | inactive: 35.5% | inactive: 80.4% | inactive: 113% | inactive: 51.4% | inactive: 87.8% | inactive: 81.8% | inactive: 90.1% | inactive: 98.4% | inactive: 27.5% |
| ClCCN(Cc1ccc(Cl)cc1)Cc1ccc(Cl)cc1 | inactive: 42.4% | inactive: 18.7% | inactive: 73.4% | inactive: 104% | inactive: 92.1% | inactive: 102% | active: -18.9% | inactive: 101% | inactive: 101% |  |
| ClP1(Cl)=NP(Cl)(Cl)=NP(c2ccccc2)(c2ccccc2)=N1 | inactive: 76.3% |  | inactive: 97.6% | inactive: 109% | inactive: 102% | inactive: 89.4% | inactive: 112% | inactive: 117% | inactive: 103% | inactive: 108% |
| CCOC(=O)c1sc2ncnc(NCCCl)c2c1C | inactive: 93.2% | inactive: 97.8% | inactive: 99.2% | inactive: 96.2% | inactive: 97.5% | inactive: 95.2% | inactive: 104% | inactive: 103% | inactive: 102% |  |
| Cc1ccc(OP(=O)(Nc2ccc([N+](=O)[O-])cn2)Oc2ccc(C)cc2)cc1 |  |  | inactive: 84.7% | inactive: 114% | inactive: 98.9% | inactive: 102% | inactive: 85.2% |  | inactive: 99.3% |  |
